The record followed here is patent US10898576B2, “Glucocorticoid combined with polyethylene glycol-modified interleukin 2 for treating respiratory disease” (priority 2016, dated 2021).

In the experiment the test system is asthma mice. Description: Lung function measurement (methacholine provocation, airway resistance) in OVA asthma mice. Format: in vivo, BALB/c mice. The note with it: 20,000 IU PEG-modified IL-2 in combination with 4 μg Bud, 3 days continuous administration, p<0.05. As to the method: Female BALB/c mice aged 6-8 weeks (purchased from SLAC Laboratory Animal Co., Ltd.) were used for modeling of asthma, which were sensitized by intraperitoneal injection with 100 μg of ovalbumin (OVA) (Sigma) and 2 mg of Al(OH)3 for injection (Sigma) on days 1 and 8, and challenged by daily nasal instillation with 20 μl of 2% OVA on days 9-14 (FIG. 1A).
The asthma mice model of Example 1 were subjected to drug intervention while challenge by nasal instillation on days 12-14. The specific administration method was that the mice were anesthetized with 7% chloral hydrate (Sangon Biotech (Shanghai) Co., Ltd.) and then administrated quantitatively through atomization in the lung using an atomization metered dosing device (MicroSprayer®—Model IA-1B), and the administration volume was fixed at 25 ul/mouse, and the administration dose was adjusted by the level of concentration. On the 15th day, relevant indicators were detected.
Lung function measurement. After being anesthetized with 2% pentobarbital sodium, the mice were subjected to respiratory provocation test with methacholine (Sigma) at 3.125 mg/ml, 6.25 mg/ml, and 12.5 mg/ml prepared in PBS, respectively. The airway resistance curve was plotted and analyzed (FinePoint NAM). The assay was performed using the BUXCO Airway Resistance and Lung Compliance System (BUXCO Electronics).

As for “10 KD non-branched PEG-modified IL-2: IL-2 modified with 10 kD non-branched PEG; tested in combination with 4 μg Bud”, the airway resistance entry is on record as “a decrease in airway resistance was observed”.

On to “20 KD branched PEG-modified IL-2: IL-2 modified with 20 kD branched PEG; tested in combination with 4 μg Bud”, for which the airway resistance result is “a decrease in airway resistance was observed”.
